Laboratory results: US10442819B2, “Tricyclic compounds as inhibitors of mutant IDH enzymes” (Merck Sharp & Dohme Corp., priority 2014, dated 2019)

The chains behind the UniProt entries cited, without tags or fusion partners.
UniProt O75874, whole entry R132H: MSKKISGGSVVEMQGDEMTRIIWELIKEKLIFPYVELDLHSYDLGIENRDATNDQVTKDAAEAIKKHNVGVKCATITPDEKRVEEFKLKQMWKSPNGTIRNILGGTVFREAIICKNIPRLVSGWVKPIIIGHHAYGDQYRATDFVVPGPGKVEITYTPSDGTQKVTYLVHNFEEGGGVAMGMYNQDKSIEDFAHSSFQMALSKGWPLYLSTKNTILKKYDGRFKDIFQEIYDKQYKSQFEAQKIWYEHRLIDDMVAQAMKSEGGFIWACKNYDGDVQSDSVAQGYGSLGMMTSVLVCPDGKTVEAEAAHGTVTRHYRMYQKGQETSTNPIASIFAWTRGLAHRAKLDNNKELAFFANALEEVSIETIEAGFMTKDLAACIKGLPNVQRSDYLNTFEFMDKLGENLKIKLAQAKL

Target: R132H mutant IDH1 enzyme (Homo sapiens (Human), UniProt O75874, R132H)
Assay: R132H IDH1 Enzymatic Assay
Format: biochemical
Settings: R132H mutant IDH1 enzyme 1.5 nM final; luminescence readout; read-out: IC50

SMILES	IC50 [nM]
CC(C)O[C@@H]1CC[C@@H](C(=O)N2Cc3cccnc3Nc3ccc(N4CCOCC4)cc32)C1 [Example 64, 6-{[(1R,3R)-3-(1-methylethoxy)cyclopent-yl]carbonyl}-8-morpholin-4-yl-6,11-dihydro-5H-pyrido[2,3-b][1,5]benzodiazepine]	154
CCOc1cncc(-c2ccc3c(c2)N(C(=O)[C@H]2CC[C@H](OC)CC2)Cc2cccnc2N3)c1 [Example 180, 8-(5-ethoxypyridin-3-yl)-6-[(trans-4-methoxycyclohexyl)carbonyl]-6,11-dihydro-5H-pyrido[2,3-b][1,5]benzodiazepine]	212
CC(C)ON=C1CCC(C(=O)N2Cc3cccnc3Nc3ccc(N4CCOCC4)cc32)CC1 (stereo not shown) [Example 551, 4-[(8-morpholin-4-yl-5,11-dihydro-6H-pyrido[2,3-b][1,5]benzodiazepin-6-yl)carbonyl]cyclohexanone O-(1-methylethyl)oxime]	137
CC1(C)CC(C(=O)N2Cc3cccnc3Nc3ccc(N4CCC45CNC5)cc32)C1 [Example 190, 8-(1,6-Diazaspiro[3.3]hept-1-yl)-6-[(3,3-dimethylcyclobutyl)carbonyl]-6,11-dihydro-5H-pyrido[2,3-b][1,5]benzodiazepine]	3720
COCCC1CN(c2ccc3c(c2)N(C(=O)[C@H]2CC[C@H](OC)CC2)Cc2cccnc2N3)C1 [Example 415, 6-[(trans-4-methoxycyclohexyl)carbonyl]-8-[3-(2-methoxyethyl)azetidin-1-yl]-6,11-dihydro-5H-pyrido[2,3-b][1,5]benzodiazepine]	686
CC(C)O[C@H]1CC[C@H](C(=O)N2Cc3cccnc3Nc3ccc(C(C)OC4CCCOC4)cc32)CC1 (stereo partly drawn) [Example 544, 6-{[trans-4-(1-methylethoxy)cyclohexyl]carbonyl}-8-[1-(tetrahydro-2H-pyran-3-yloxy)ethyl]-6,11-dihydro-5H-pyrido[2,3-b][1,5]benzodiazepine]	20
COC1CN(c2ccc3c(c2)N(C(=O)[C@H]2CC[C@H](OC)CC2)Cc2cccnc2N3)CCC1(F)F (stereo partly drawn) [Example 212, 8-(4,4-difluoro-3-methoxypiperidin-1-yl)-6-[(trans-4-methoxycyclohexyl)carbonyl]-6,11-dihydro-5H-pyrido[2,3-b][1,5]benzodiazepine]	286
CC(C)O[C@H]1CC[C@H](C(=O)N2Cc3cccnc3Nc3ccc(C4COCC4C)cc32)OC1 (mixture of isomers) [Example 532, ((2R,5S)-5-isopropoxytetrahydro-2H-pyran-2-yl)(8-(4-methyltetrahydrofuran-3-yl)-5,11-dihydro-6H-benzo[b]pyrido[2,3-e][1,4]diazepin-6-yl)methanone]	5
CN(CC(F)(F)F)[C@H]1CC[C@@H](C(=O)N2Cc3cccnc3Nc3ccc(N4CCOCC4)cc32)CC1 [Example 505, cis-N-methyl-4-[(8-morpholin-4-yl-5,11-dihydro-6H-pyrido[2,3-b][1,5]benzodiazepin-6-yl)carbonyl]-N-(2,2,2-trifluoroethyl)cyclohexanamine]	502
CC(C)O[C@@H](C)[C@H]1CC[C@@H](C(=O)N2Cc3cccnc3Nc3ccc(N4CCOCC4)cc32)CC1 [Example 172, [8-(Morpholin-4-yl)-5,11-dihydro-6H-pyrido[2,3-b][1,5]benzodiazepin-6-yl]{cis-4-[(1S)-1-(propan-2-yloxy)ethyl]cyclohexyl}methanone]	168
CO[C@H]1CC[C@H](C(=O)N2Cc3cccnc3Nc3ccc(N4CC[C@H]5[C@@H](C4)N(C)C(=O)N5C)cc32)CC1 [Example 249, (3aR,7aS)-5-{6-[(trans-4-methoxycyclohexyl)carbonyl]-6,11-dihydro-5H-pyrido[2,3-b][1,5]benzodiazepin-8-yl}-1,3-dimethyloctahydro-2H-imidazo[4,5-c]pyridin-2-one]	69
CC(C)(C)O[C@H]1CC[C@H](C(=O)N2Cc3cccnc3Nc3ccc(N4CCOCC4)cc32)CC1 [Example 111, 6-[(trans-4-tert-butoxycyclohexyl)carbon-yl]-8-morpholin-4-yl-6,11-dihydro-5H-pyrido[2,3-b][1,5]benzodiazepine]	34
CC1CC(F)(F)CCC1C(=O)N1Cc2cccnc2Nc2ccc(N3CCC(F)(F)CC3)cc21 (stereo not shown) [Example 196, 6-[(4,4-difluoro-2-methylcyclohexyl)carbonyl]-8-(4,4-difluoropiperidin-1-yl)-6,11-dihydro-5H-pyrido[2,3-b][1,5]benzodiazepine]	614
CO[C@H]1CC[C@H](C(=O)N2Cc3cccnc3Nc3ccc(N4C[C@@H](C)OC[C@H]4C)cc32)CC1 [Example 224, 8-[(2R,5R)-2,5-dimethylmorpholin-4-yl]-6-[(trans-4-methoxycyclohexyl)carbonyl]-6,11-dihydro-5H-pyrido[2,3-b][1,5]benzodiazepine]	846
CC(C)[C@H]1OCC(=O)N1c1ccc2c(c1)N(C(=O)C1CCC(C(F)(F)F)CC1)Cc1cccnc1N2 (stereo partly shown) [Example 493]	4
CO[C@H]1CC[C@@H](C(=O)N2Cc3cccnc3Nc3ccc(N4CCn5cccc5C4)cc32)CC1 [Example 274, 8-(3,4-dihydropyrrolo[1,2-a]pyrazin-2(1H)-yl)-6-[(cis-4-methoxycyclohexyl)carbonyl]-6,11-dihydro-5H-pyrido[2,3-b][1,5]benzodiazepine]	224
CO[C@H](C1CC1)[C@H]1CC[C@@H](C(=O)N2Cc3cccnc3Nc3ccc(N4CCOCC4)cc32)CC1 [Example 167, 6-({Cis-4-[(R)-cyclopropyl(methoxy)methyl]cyclohexyl}carbonyl)-8-morpholin-4-yl-6,11-dihydro-5H-pyrido[2,3-b][1,5]benzodiazepine]	167

Further compounds by falling IC50, results first:

IC50 [nM]	SMILES
1040	CC1(C)CC(C(=O)N2Cc3cccnc3Nc3ccc(N4CC5CCC4CN5)cc32)C1 (stereo not shown) [Example 194, 8-(2,5-diazabicyclo[2.2.2]oct-2-yl)-6-[(3,3-dimethylcyclobutyl)carbonyl]-6,11-dihydro-5H-pyrido[2,3-b][1,5]benzodiazepine]
974	COC1CCC(C(=O)N2Cc3cccnc3Nc3ccc(N4C(=O)OC[C@@H]4C)cc32)CC1 (stereo partly shown) [Example 492, (I4S)-3-{6-[(4-methoxycyclohexyl)carbonyl]-6,11-dihydro-5H-pyrido[2,3-b][1,5]benzodiazepin-8-yl}-4-methyl-1,3-oxazolidin-2-one]
865	CO[C@H]1CC[C@H](C(=O)N2Cc3cccnc3Nc3ccc(N4CCOCC4C)cc32)CC1 (stereo partly drawn) [Example 288, 6-[(trans-4-methoxycyclohexyl)carbonyl]-8-(3-methylmorpholin-4-yl)-6,11-dihydro-5H-pyrido[2,3-b][1,5]benzodiazepine]
589	CO[C@H]1CC[C@H](C(=O)N2Cc3cccnc3Nc3ccc(N4CCOC(C5CC5)C4)cc32)CC1 (stereo partly drawn) [Example 293, 8-(2-cyclopropylmorpholin-4-yl)-6-[(trans-4-methoxycyclohexyl)carbonyl]-6,11-dihydro-5H-pyrido[2,3-b][1,5]benzodiazepine]
574	CCC(=O)N1c2ccc(N3CC4CCC3CN4C(=O)CC)cc2N(C(=O)C2CC(C)(C)C2)Cc2cccnc21 (stereo not shown) [Example 502, 6-[(3,3-dimethylcyclobutyl)carbonyl]-11-propanoyl-8-(5-propanoyl-2,5-diazabicyclo[2.2.2]oct-2-yl)-6,11-dihydro-5H-pyrido[2,3-b][1,5]benzodiazepine]
529	COC1CCC(C(=O)N2Cc3cccnc3Nc3ccc(N4C(=O)OCC4C)cc32)CC1 (stereo not shown) [Example 490, 3-{6-[(4-methoxycyclohexyl)carbonyl]-6,11-dihydro-5H-pyrido[2,3-b][1,5]benzodiazepin-8-yl}-4-methyl-1,3-oxazolidin-2-one]
231	CO[C@H]1CC[C@H](C(=O)N2Cc3cccnc3Nc3ccc(N4CCC(F)(F)C4)cc32)CC1 [Example 279, 8-(3,3-difluoropyrrolidin-1-yl)-6-[(trans-4-methoxycyclohexyl)carbonyl]-6,11-dihydro-5H-pyrido[2,3-b][1,5]benzodiazepine]
175	CC(C)[C@H](N[C@H]1CC[C@@H](C(=O)N2Cc3cccnc3Nc3ccc(N4CCOCC4)cc32)CC1)C(F)(F)F [Example 455, cis-N-[(1S)-2-methyl-1-(trifluoromethyl)propyl]-4-[(8-morpholin-4-yl-5,11-dihydro-6H-pyrido[2,3-b][1,5]benzodiazepin-6-yl)carbonyl]cyclohexanamine]
159	CCN1C(=O)OCC12CCN(c1ccc3c(c1)N(C(=O)[C@H]1CC[C@H](OC)CC1)Cc1cccnc1N3)C2 (stereo partly drawn) [Example 248, 1-ethyl-7-{6-[(trans-4-methoxycyclohexyl)carbonyl]-6,11-dihydro-5H-pyrido[2,3-b][1,5]benzodiazepin-8-yl}-3-oxa-1,7-diazaspiro[4.4]nonan-2-one]
72	CO[C@@H]1CCN(c2ccc3c(c2)N(C(=O)[C@H]2CC[C@H](OC(C)C)CO2)Cc2cccnc2N3)[C@@H](C)C1 (single isomer, unassigned) [Example 45]
64	O=C([C@H]1CC[C@H](OCC(F)(F)F)CC1)N1Cc2cccnc2Nc2ccc(N3CCOCC3)cc21 [Example 132, 8-morpholin-4-yl-6-{[trans-4-(2,2,2-trifluoroethoxy)cyclohex-yl]carbonyl}-6,11-dihydro-5H-pyrido[2,3-b][1,5]benzodiazepine]
57	CO[C@H]1CCN(c2ccc3c(c2)N(C(=O)[C@H]2CC[C@H](OC(C)C)CO2)Cc2cccnc2N3)[C@@H](C)C1 (single isomer, unassigned) [Example 46]
31	CO[C@H]1CC[C@H](C(=O)N2Cc3cccnc3Nc3ccc(-c4ccnc5[nH]ccc45)cc32)CC1 [Example 410, 6-[(trans-4-methoxycyclohexyl)carbonyl]-8-(1H-pyrrolo[2,3-b]pyridin-4-yl)-6,11-dihydro-5H-pyrido[2,3-b][1,5]benzodiazepine]
6	O=C(C1CCN(CC(F)(F)F)CC1)N1Cc2cccnc2Nc2ccc(C3CCOCC3)cc21 [Example 515, 8-(tetrahydro-2H-pyran-4-yl)-6-{[1-(2,2,2-trifluoroethyl)piperidin-4-yl]carbonyl}-6,11-dihydro-5H-pyrido[2,3-b][1,5]benzodiazepine]
